Test results published in patent US20030095958A1, “Inhibitors of bace” (priority 2001, published 2003).

Chains of the proteins cited; added tags and fusions are not shown. Residues count along the entry.
UniProt P56817, 46-501 limits assumed: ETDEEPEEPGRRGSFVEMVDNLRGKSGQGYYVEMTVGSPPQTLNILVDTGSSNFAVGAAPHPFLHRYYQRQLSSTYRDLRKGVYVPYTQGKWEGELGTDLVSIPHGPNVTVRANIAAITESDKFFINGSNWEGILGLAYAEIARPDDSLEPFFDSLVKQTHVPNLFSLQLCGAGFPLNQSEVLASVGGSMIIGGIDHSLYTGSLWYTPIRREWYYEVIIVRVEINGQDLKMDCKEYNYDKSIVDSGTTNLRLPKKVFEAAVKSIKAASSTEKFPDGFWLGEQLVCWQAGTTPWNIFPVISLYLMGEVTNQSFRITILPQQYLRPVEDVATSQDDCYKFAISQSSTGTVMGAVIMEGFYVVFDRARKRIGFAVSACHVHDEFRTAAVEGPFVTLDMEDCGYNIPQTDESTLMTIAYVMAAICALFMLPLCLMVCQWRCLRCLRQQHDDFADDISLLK

Target: BACE (Homo sapiens, UniProt P56817)
Assay: Ki Determination for the Inhibition of BACE (FS-1 peptide fluorescence cleavage assay)
Settings: apparent Ki; 50 nM BACE, 10 μM FS-1 substrate, 0.1M sodium acetate pH 4.5
Experimental: Compounds were tested against BACE activity using the following modifications of the method described in J. Ermolieff et al. (2000) Biochemistry 39(51):16263.
All compound evaluations were performed in 0.1M sodium acetate (buffer), pH, 4.5, 10 μM substrate (FS-1 peptide as described in the reference above; this is commercially available), varying concentrations of the test compound or control (DMSO to yeild 2% vol/vol), and 50 nM BACE. The assay volume is 100 μL.
Two microliters of the test compound dissolved in DMSO are added to each well in a 96-well microtiter plate. Seventy eight microliters of BACE are mixed with buffer and added to each well then incubated at room temperature for 15 minutes. A stock solution of 50 μM FS-1 substrate was prepared by addition of an aliquot of FS-1 substrate which was dissolved in DMSO to the buffer and mixed well. The reaction is initiated by addition of 20 μL of the FS-1 mix to the remaining, preincubated assay components. The cleavage reaction of substrate to product is measured using a Molecular Devices fluorescence plate reader with the excitation and emission filter pairs of 355 nm and 495 nm, respectively. Apparent Ki values are determined by fitting the data to the integrated equation for competitive tight binding inhibition.

CC(NC(=O)C1CNCCC1c1ccc(-c2ccccc2)cc1)c1ccc2ccccc2c1 (single isomer, unassigned)
Ki: 3 to 30 µM
